# In patent publication US20230270848A1:
# Target: mIgE.FcL on Ramos cells: segment of the long isoform of the mIgE ε chain spanning from the CH2 to the cytoplasmic peptide, including the EMPD (human) (UniProt P01854)
# Assay: cell-based or functional assay
substance,measurement,value
"Xolair, a humanized anti-IgE monoclonal antibody",EC50 of apoptosis (% Annexin V+/PI-) of mIgE.FcL-expressing Ramos cells,0.121 µg/mL
